# Ab-95 light chain CDR variants: yeast mating affinities

Target: peptide PDVDLGDISGINAS, taken from heptad repeat 2 (HR2) of SARS-CoV-2 spike.

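Phage display of a naive human antibody library on the peptide gave the parent. The library (AAYL52) carries one to three amino acid substitutions per variant, with no insertions or deletions. The assay is AlphaSeq: two haploid yeast populations carry antibody and antigen on their surface. The frequency of each diploid, read from paired DNA barcodes, reflects how well the two displayed proteins bind. Each replicate has its own calibration line, from reference interactions of the BCL2 family. The assay was run in three technical replicates.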

The variants keep the heavy chain, the linker and the frameworks of Ab-95 (scFv order VH, the linker GGGGSGGGGSGGGGS, VL).
VH: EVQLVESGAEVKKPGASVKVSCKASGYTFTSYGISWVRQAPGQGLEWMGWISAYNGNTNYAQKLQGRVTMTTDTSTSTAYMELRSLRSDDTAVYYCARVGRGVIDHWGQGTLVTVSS
VL: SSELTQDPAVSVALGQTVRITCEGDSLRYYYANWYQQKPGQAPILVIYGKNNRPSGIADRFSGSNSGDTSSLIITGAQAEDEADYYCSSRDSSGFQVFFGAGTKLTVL

The parent's light chain CDRs are EGDSLRYYYAN, GKNNRPS, SSRDSSGFQVF; each variant's own CDRs replace them letter for letter. All variants listed here change Q96 of the VL, counted from its first residue. Each Kd is an estimate from the mating assay, the geometric mean of the replicates in which the pair was seen; lower is stronger. "nd" means that the variant was in the library but no mating with the target was seen in any replicate; the authors take this as a sign of poor binding, and no number exists. Empty control strains, which show no peptide, gave a signal in 28% of pairings with library AAYL52; the median was 8.2 µM and 95% of these signals were weaker than 800 nM. No background was subtracted.

CDR-L1,CDR-L2,CDR-L3,Kd (apparent),detected
EGSSLRYYYAN,GKNNRPS,SSRDSSGFKVF,680 nM,3 of 3
EGDSLRYYYAN,GKWNRPS,SSRDSSGFAIF,24 µM,3 of 3
EGDSLRYYYAN,GKQNRPS,SSRDSSGFMVF,2.6 µM,3 of 3
EGDSLRYYYAN,GKNNRPS,SSRDESGGMVF,2.2 µM,1 of 3
EGDSLRYYYAN,GKNNRQS,SSRDSSGFMVF,320 nM,3 of 3
EGDSLRYYYAN,GKNNRPS,SSRDSLNFYVF,260 nM,3 of 3
EGDSLRYYYPN,GKNNRPS,SSRFSSGFKVF,32 nM,3 of 3
EGDSLRYRYAN,GKNNRPS,SSRDSSGFEVF,180 nM,3 of 3
EGDSLRYYYAN,GKNNRPS,SKRDSSGFRIF,4.1 µM,3 of 3
EGDSLRYYYAN,WKNNRPS,SSRDSSNFMVF,nd,0 of 3
EGNSLRYYYAN,HKNNRPS,SSRDSSGFEVF,2.3 µM,3 of 3
EGDSLRYYYAN,GKNNRPS,SITDSSGFWVF,1.2 µM,3 of 3
EGDSLRYYYAN,GSNNRPS,SSRDSSGFRVR,3.1 µM,3 of 3
EGISLRYYYAN,HKNNRPS,SSRDSSGFWVF,580 nM,2 of 3
EGKSLRYYYAN,GKNNRPS,SSRDSSFFLVF,1.4 µM,3 of 3
EGDSYRYYYAN,GKNNRPS,SSRDSSGQCVF,nd,0 of 3
EGDSLRYYYLN,GKGNRPS,SSRDSSGFGVF,25 µM,3 of 3
WGDSLRTYYAN,GKNNRPS,SSRDSSGFTVF,1.6 µM,3 of 3
EGDVLRYYYAN,GKNNRPS,SSRDSSGFVVF,nd,0 of 3
EGDSLRYYYAN,GGNNRCS,SSRDSSGFWVF,2.2 µM,3 of 3
EGDSLHYYYAN,GKNNRPS,SSRDSSQFNVF,350 nM,1 of 3
EGDYLRYYYKN,GKNNRPS,SSRDSSGFVVF,44 µM,1 of 3
EGDSLRYYYWN,GKANRPS,SSRDSSGFTVF,61 µM,1 of 3
EGDSLRYYYAN,GKNNRPS,SSRDSSGFDNF,130 nM,3 of 3
EGDSLRYYYAN,GKNNRPN,SSRDSSVFMVF,900 nM,3 of 3
EGDSLRYYYAN,GKNNRPS,SSRWSCGFNVF,1.9 µM,2 of 3
EGDSLRYYYAN,GKNNRPS,SSSDSSMFEVF,190 µM,1 of 3
EGDSLRYYYAN,GNNNRPS,SSRDSMGFNVF,550 nM,3 of 3
EGDSLRYYYAN,GKNNRPS,SSRTASGFLVF,820 nM,3 of 3
EGDSLRYYYAP,GKNNRPS,SSRKSSGFMVF,nd,0 of 3
EGDSLRWYYAN,GKNNRPS,SSRDSSGFIVF,15 µM,3 of 3
EGDSLRYYVAN,GKNNRPS,SSRDGSGFWVF,6.2 µM,2 of 3
EGDSLRYYVAN,GKNNRPR,SSRDSSGFGVF,9.3 µM,3 of 3
EGDSLRYYTAN,GKNNRPS,SSRDSSGFDQF,2.7 µM,2 of 3
EGDSLRYYDNN,GKNNRPS,SSRDSSGFCVF,6.2 µM,3 of 3
EGDSLDYYYAN,GKGNRPS,SSRDSSGFNVF,170 nM,3 of 3
EGDSLRYYYAN,GWNNRPS,SSRLSSGFFVF,17 µM,3 of 3
EGDSIRYYPAN,GKNNRPS,SSRDSSGFWVF,110 nM,3 of 3
EGDSLRYYYLN,GKNNRPS,SNRDSSGFDVF,nd,0 of 3
EGDSLRYYYAN,GSNNRPS,SSRNSSGFPVF,1.0 µM,3 of 3
EGDSLRYYYAN,GKENRMS,SSRDSSGFMVF,2.5 µM,3 of 3
EGISLRYYYAN,GKNNRPS,SSRDSSGFDVK,120 nM,3 of 3
EGDSLRYYYAN,GKNNNPS,SSRDSSLFTVF,3.1 µM,2 of 3
MGDSLRYYYAN,GKNNFPS,SSRDSSGFNVF,270 µM,2 of 3
EGDSERYTYAN,GKNNRPS,SSRDSSGFEVF,3.3 µM,3 of 3
EGDSLRYYYGN,GKNNRPS,SSRDSSDFAVF,nd,0 of 3
EIDSLRYYYAN,GKNNRPS,SSRDSSGFGVA,12 µM,2 of 3
EGDSLFYYYAN,GKNNRPS,SGRDSSGFVVF,14 µM,3 of 3
EGDSVRYYYAN,GKNNRPS,SSRDSKGFCVF,930 nM,3 of 3
IGDSLRPYYAN,GKNNRPS,SSRDSSGFPVF,140 nM,3 of 3

Extract of 5 entries:

CDR-L1,CDR-L2,CDR-L3,Kd (apparent),detected
EIDSLRYYYAN,GKNNRPS,SSRDSSGFGVA,12 µM,2 of 3
EGDSLRYYYAN,GKNNRPS,SSRWSCGFNVF,1.9 µM,2 of 3
EGDSLRYYVAN,GKNNRPS,SSRDGSGFWVF,6.2 µM,2 of 3
EGDSLRYYYLN,GKGNRPS,SSRDSSGFGVF,25 µM,3 of 3
EGDSLRYYYAN,GKNNRPS,SSRDESGGMVF,2.2 µM,1 of 3

Reference: Engelhart et al. 2022, doi:10.1038/s41597-022-01779-4. File: FLAb, binding data.